Data reported in patent US20030235916A1, “Novel methods for the delivery of polynucleotides to cells” (priority 2002, published 2003).

Experiment: Ultracentrifugation of hydrophobic pDNA complexes on sucrose gradient, fraction fluorescence (Example 61)
Format: physicochemical
Conditions: sucrose gradient 18-54%, 35 krpm, 20 hr
Method: To H2O (1000 μL) was added either polymer or detergent and vortexed. To the resulting solution was added RhDNA or Rh-DNA-NC12-PyrDet (50 μg) and vortexed. The samples were loaded into tubes prepared with a sucrose gradient (18-54%, 10 mM Hepes, 1 mM EDTA, 9.5 mL) and trizamide as the base (cushion). The samples were centrifugated at 35 krpm at 4C. under vacuum for 20 hr. Each sample was separated into 750 μL fractions, fractionating from the bottom of the tube to the top. To each fraction was added NaCl (150 μL, of 5 M, 1 M final) and Triton (37.5 μL of 20%, 1% final) with vortexing. The fractions were analyzed on a spectrofluorometer (Varian Cary Eclipse) at the rhodamine (Ex 555 nm and Em 585 nm), FITC (Ex 495 nm and Em 530 nm), and pyrene (Ex 340nm and Em 377 nm) channels.

pyrenedodecanoic-3-trimethylaminopropylamine carboxamide iodide [pyrene detergent]
Pyrene fluorescence of fractions after ultracentrifugation: remains in the top fractions
